Experimental data: publication PMC8509398, “Proteolytic Cleavage of Bioactive Peptides and Protease-Activated Receptors in Acute and Post-Colitis” (International Journal of Molecular Sciences, 2021)

Amino acid sequences for entries named in this document (tags omitted). Residues count along the entry.
UniProt P00772, 27-266: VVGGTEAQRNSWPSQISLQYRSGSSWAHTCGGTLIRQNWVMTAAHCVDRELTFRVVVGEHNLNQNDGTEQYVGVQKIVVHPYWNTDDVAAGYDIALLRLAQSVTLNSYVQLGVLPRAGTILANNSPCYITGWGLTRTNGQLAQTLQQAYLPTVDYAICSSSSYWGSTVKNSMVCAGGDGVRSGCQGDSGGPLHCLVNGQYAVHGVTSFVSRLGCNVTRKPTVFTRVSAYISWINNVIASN

Experiments:
cathepsin G = molecular target: T1, cathepsin G (Homo sapiens, UniProt P08311); test: Cleavage of peptides by purified cathepsin G, MALDI-TOF/TOF; conditions: 25 nM protease, 10 µM peptide, 37 °C, 2, 5, 10 and 30 min, stopped with 2% TFA
T1 sequence (P08311 21-255): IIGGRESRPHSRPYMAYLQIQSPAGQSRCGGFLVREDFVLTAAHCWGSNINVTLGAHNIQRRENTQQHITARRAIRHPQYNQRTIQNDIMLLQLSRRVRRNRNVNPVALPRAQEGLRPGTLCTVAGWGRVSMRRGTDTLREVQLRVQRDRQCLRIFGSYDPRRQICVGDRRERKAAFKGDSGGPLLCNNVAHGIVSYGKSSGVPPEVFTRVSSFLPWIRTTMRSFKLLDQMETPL
From the text: (§1) Trypsin-like proteases included in the experiments are trypsin-1, -2 and -3, tryptase (Enzo LifeSciences), thrombin (Sigma-Aldrich) and cathepsin G (Sigma-Aldrich). Trypsin-1, -2 and -3 were produced as described by Koistinen et al. and Wu et al.. Two elastase-like enzymes, neutrophil elastase (Enzo LifeSciences, Farmingdale, NY, USA) and pancreatic elastase I (Sigma-Aldrich) were included as well. All enzymes were from human origin except for pancreatic elastase from porcine pancreas.
(§2) Reaction mixtures with purified enzymes were compiled in an identical way. […]
(§3) MS and MS/MS data for peptide fragment identification were obtained with a MALDI-TOF/TOF instrument (4800 MALDI TOF/TOF™, Applied Biosystems, Waltham, MA, USA) and instrument parameters were set using 4000 Series Explorer™ software. MS spectra were recorded in positive reflector mode in a mass range from 500 to 4000 Da and laser intensity of 4500–4800 Hz. […] MS/MS spectra were recorded with high-energy collision-induced dissociation and the laser intensity was increased by 10%.
(§4) Identified fragments were confirmed using the MS/MS spectra and mMass 5.5.0 by Martin Strohalm. The relative intensities of the fragments were calculated as the ratio of the intensity of the peak of interest to the intensity of the peak of the standard peptide.

neutrophil elastase = molecular target: T2, neutrophil elastase (Homo sapiens, UniProt P08246); test: Cleavage of peptides by purified neutrophil elastase, MALDI-TOF/TOF; conditions: 25 nM protease, 10 µM peptide, 37 °C, 2, 5, 10 and 30 min, stopped with 2% TFA
T2 sequence (P08246 30-267): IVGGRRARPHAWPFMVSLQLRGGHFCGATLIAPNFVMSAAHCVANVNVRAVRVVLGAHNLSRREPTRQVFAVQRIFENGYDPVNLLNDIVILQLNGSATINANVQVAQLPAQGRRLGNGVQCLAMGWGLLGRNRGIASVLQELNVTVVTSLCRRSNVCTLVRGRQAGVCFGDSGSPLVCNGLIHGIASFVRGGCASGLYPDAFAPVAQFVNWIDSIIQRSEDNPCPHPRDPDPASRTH
From the text: as §1, §2, §3, §4

pancreatic elastase I = pancreatic elastase I (Sus scrofa, UniProt P00772); test: Cleavage of peptides by purified pancreatic elastase, MALDI-TOF/TOF; conditions: 25 nM protease, 10 µM peptide, 37 °C, 2, 5, 10 and 30 min, stopped with 2% TFA
From the text: as §1, §2, §3, §4

[1] = Cleavage of peptides by colonic tissue lysates from TNBS-induced colitis rat model, MALDI-TOF/TOF; conditions: rat colonic lysate, 10 µM peptide, 20 µg/mL protein, 37 °C, 5-30 min, stopped with 2% TFA, MALDI-TOF/TOF relative intensity vs standard peptide, n = 8 animals
Procedure: Adult male Sprague–Dawley rats (200–225 g; Charles River, Wilmington, MA, USA) were used in a previously described TNBS-induced acute and post-inflammatory model. Rats were housed at constant room temperature (22 ± 2 °C) and humidity (60%) with two rats per cage, unlimited access to water and food and on a 12 h–12 h light/dark cycle.
After an overnight fast, TNBS colitis was induced using a TNBS-enema (4 mg TNBS; Sigma-Aldrich, 50% ethanol) as described previously. Rats were anesthetized with a mixture of ketamine (35 mg/kg i.p.; Ketalar®, Pfizer, New York City, NY, USA) and xylazine (5 mg/kg i.p.; Rompun®, Bayer, Leverkusen, Germany), and the TNBS-enema or 0.9% saline was administered intrarectally using a flexible catheter (18 G, length 4.5 cm) to colitis and control rats, respectively. Animals were kept in a tail-up position for 1 min and were then allowed to recover in their cages with free access to water and food. […]
MS and MS/MS data for peptide fragment identification were obtained with a MALDI-TOF/TOF instrument (4800 MALDI TOF/TOF™, Applied Biosystems, Waltham, MA, USA) and instrument parameters were set using 4000 Series Explorer™ software. MS spectra were recorded in positive reflector mode in a mass range from 500 to 4000 Da and laser intensity of 4500–4800 Hz.

## CSCC[C@H](NC(=O)[C@H](Cc1ccccc1)NC(=O)CNC(=O)CNC(=O)[C@@H](N)Cc1ccc(O)cc1)C(=O)O [M-enkephalin, Met-enkephalin]
Cathepsin G
  Efficiency of the first cleavage in the peptide, Cathepsin G: −
Neutrophil elastase
  Efficiency of the first cleavage in the peptide, Neutrophil Elastase: −
Pancreatic elastase I
  Efficiency of the first cleavage in the peptide, Pancreatic Elastase: + (processing after 10 or 30 min)
[1]
  Incubation time after which processing was significant (decrease of full-length peptide or increase of fragment), control samples: not with control samples
